Measured values as given in PubChem BioAssay AID861 (The Scripps Research Institute Molecular Screening Center, 2007).
This is a selection; strong and weak results do not stand in their true shares. Active and inactive are the calls of the source. Cut-off read from the data, not from the text of the source: active = inhibition above about 25%; inactive = the rest.

By UniProt entry, the sequences of proteins in these tests, tags left out.
UniProt O00206, whole entry, looked up: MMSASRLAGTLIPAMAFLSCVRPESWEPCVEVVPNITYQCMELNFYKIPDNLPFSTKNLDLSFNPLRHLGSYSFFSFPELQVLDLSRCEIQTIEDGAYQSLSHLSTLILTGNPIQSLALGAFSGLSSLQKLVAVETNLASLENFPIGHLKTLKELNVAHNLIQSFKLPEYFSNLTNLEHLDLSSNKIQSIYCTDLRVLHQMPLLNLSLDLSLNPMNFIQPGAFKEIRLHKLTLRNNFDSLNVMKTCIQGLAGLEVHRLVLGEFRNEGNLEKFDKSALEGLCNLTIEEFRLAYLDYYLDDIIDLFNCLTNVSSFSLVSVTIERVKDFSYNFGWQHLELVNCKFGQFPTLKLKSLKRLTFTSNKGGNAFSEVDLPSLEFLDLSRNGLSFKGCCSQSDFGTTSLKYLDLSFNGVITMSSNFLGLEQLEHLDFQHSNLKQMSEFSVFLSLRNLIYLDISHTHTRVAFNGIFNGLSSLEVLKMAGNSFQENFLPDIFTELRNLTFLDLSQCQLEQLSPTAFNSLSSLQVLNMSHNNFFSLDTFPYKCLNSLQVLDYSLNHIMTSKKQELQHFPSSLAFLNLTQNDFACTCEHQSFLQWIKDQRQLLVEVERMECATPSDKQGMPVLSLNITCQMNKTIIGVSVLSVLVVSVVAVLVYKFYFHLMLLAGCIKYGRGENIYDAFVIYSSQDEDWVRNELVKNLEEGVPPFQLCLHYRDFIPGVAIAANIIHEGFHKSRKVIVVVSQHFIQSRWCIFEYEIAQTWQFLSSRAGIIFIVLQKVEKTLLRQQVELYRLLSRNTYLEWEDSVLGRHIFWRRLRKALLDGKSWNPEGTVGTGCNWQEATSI
UniProt Q99836, whole entry, looked up: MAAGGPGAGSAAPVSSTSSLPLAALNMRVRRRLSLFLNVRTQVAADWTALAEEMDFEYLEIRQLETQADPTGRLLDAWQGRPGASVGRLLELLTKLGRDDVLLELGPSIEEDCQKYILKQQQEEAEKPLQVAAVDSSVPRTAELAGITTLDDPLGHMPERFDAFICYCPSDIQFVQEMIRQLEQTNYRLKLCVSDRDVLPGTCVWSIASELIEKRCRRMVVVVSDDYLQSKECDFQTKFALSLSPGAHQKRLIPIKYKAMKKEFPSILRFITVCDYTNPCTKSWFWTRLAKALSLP

These compounds were tested against Toll-like receptor 4 (Homo sapiens) + Myeloid differentiation primary response protein MyD88 (Homo sapiens) (UniProt O00206+Q99836) (assay: inhibitors of TLR4-MyD88 association in cells, primary screen, cell-based, HeLa CL3-4, BLA complementation, FRET ratio (AID 861;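 note: 0% = vehicle and 100% = reference inhibitor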)). Conditions: HeLa CL3-4 TLR4/MyD88 BLA complementation, at 8.4 µM, stronger effect = higher value.

Compound	inhibition
O=[N+]([O-])c1ncn(CCn2ncnc2[N+](=O)[O-])n1	inactive: -4.23%
CC1CCN(C(=O)Oc2c(Cl)cc(Cl)c3cccnc23)CC1	inactive: -16.5%
CN(C)C(=O)OCCc1n(C)cc[n+]1C	inactive: -1.67%
CC(C)=N/N=C(\N)N[N+](=O)[O-]	inactive: 0.39%
CCN(/C(=N/P(=O)(N1CCOCC1)N1CCOCC1)N1CCOCC1)c1ccc(OC)cc1	inactive: -16.3%
CCc1nc2c(n1)c1c(non1O)c1c2no[n+]1[O-]	inactive: 23.1%
O=[N+]([O-])c1cc([N+](=O)[O-])c(CCNc2ccccc2)c([N+](=O)[O-])c1	inactive: 11.7%
Cc1ccc(NP(=O)(Oc2ccccc2)Oc2ccccc2)nc1	inactive: 4.61%
O=[N+]([O-])c1cccc2n[nH]nc12	inactive: 10.5%
CC(=O)N1C2C3N(C(C)=O)C1C1N(C(C)=O)C(C(N1C(C)=O)N3C(C)=O)N2C(C)=O	inactive: 1.65%
COc1ccc(C2=NCC(CBr)S2)cc1 (centres undefined)	inactive: 6.48%
O=C(NC(Sc1ccncn1)C(Cl)(Cl)Cl)c1ccccc1 (centres undefined)	inactive: -0.44%
Cc1c2non([O-])c-2c(C)[n+](=O)[n+]1[O-]	active: 26%
Oc1ccccc1CNc1ccccn1	inactive: -9.77%
CC(C)CC(=O)NC(Sc1ccc(Cl)cc1)C(Cl)(Cl)Cl (centres undefined)	inactive: -6.22%
CN1CCCC(OC(=O)C(c2ccccc2)c2ccccc2)C1 (centres undefined)	inactive: 1.02%
Clc1ccc(Cl)c(NC2=NCC(CBr)S2)c1 (centres undefined)	inactive: -0.55%
COc1ccccc1OP(=O)(Nc1ccc(C)cn1)Oc1ccccc1OC	inactive: -17.9%
Cc1ccc(N/C(=N/P(=O)(N2CCOCC2)N2CCOCC2)N2CCOCC2)cc1	inactive: 1.78%
NC(=O)c1cc([N+](=O)[O-])cc([N+](=O)[O-])c1N	inactive: 2.69%
CCN(N=Nc1nonc1N)c1nonc1N	inactive: 4.26%
Cc1cc(SC(NC(=O)c2ccc(F)cc2)C(Cl)(Cl)Cl)ncn1 (centres undefined)	inactive: -7.48%
CCOP(=O)(Nc1ccccc1)OCC	inactive: 9.89%
O=c1c2cc([N+](=O)[O-])ccc2[nH]c2c([N+](=O)[O-])cc([N+](=O)[O-])cc12	inactive: 4.41%
CCC(=O)N1C2C3N(C(=O)CC)C1C1N(C(=O)CC)C(C(N1C(=O)CC)N3C(=O)CC)N2C(=O)CC	inactive: -9.97%
Cc1ccc(OP(=O)(Nc2ccccn2)Oc2ccc(C)cc2)cc1	inactive: -12.3%
CC(=O)NC(SC(=S)N(CC(C)C)CC(C)C)C(Cl)(Cl)Cl (centres undefined)	inactive: -5.82%

Compound	inhibition
COC(=O)c1cc2c(s1)N=C(c1ccccc1)N(C)P2(=O)N1CCOCC1 (centres undefined)	inactive: 10.6%
CCOC(=O)NC(Sc1ccccc1)C(Cl)(Cl)Cl (centres undefined)	inactive: -3.82%
c1ccc(-c2nn[nH]n2)c(-c2nn[nH]n2)c1	inactive: 12.9%
CCNC(=S)/N=C(\N)N[N+](=O)[O-]	inactive: 16.4%
O=C(NC1CCS(=O)(=O)C1)NP(=S)(Oc1ccccc1)Oc1ccccc1 (centres undefined)	inactive: 5.54%
CC(=O)Nc1ccc(Oc2c([N+](=O)[O-])cc([N+](=O)[O-])cc2[N+](=O)[O-])cc1	inactive: 6.79%
CC(C)(C)C(=O)NC(Sc1ccccc1)C(Cl)(Cl)Cl (centres undefined)	inactive: -5.26%
CCOc1ccc(C2=NCC(CBr)S2)cc1 (centres undefined)	inactive: -4.28%
O=P1(Nc2nc3ccc(Cl)cc3s2)COc2ccccc2O1 (centres undefined)	inactive: -1.44%
c1nnnn1CCn1cnnn1	inactive: -20.7%
CC(C)C(=O)NC(Sc1ccccc1)C(Cl)(Cl)Cl (centres undefined)	inactive: 0.5%
O=P(Nc1nccs1)(c1ccccc1)c1ccccc1	inactive: 16.3%
O=C(OC1CN2CCC1CC2)c1cccc(Cl)c1 (centres undefined)	inactive: 3.04%
C(Cc1nn[nH]n1)Cc1nn[nH]n1	inactive: 1.33%
CC(=O)NC(SC(=S)N(C)C)C(Cl)(Cl)Cl (centres undefined)	inactive: 4.74%
O=P(Nc1ccccn1)(c1ccc(Br)cc1)c1ccc(Br)cc1	inactive: -1.89%
Cc1ccc(OCC(=O)OC2CN3CCC2CC3)cc1 (centres undefined)	inactive: -0.33%
O=P1(Nc2ccc(Br)cn2)COc2ccccc2OC1	inactive: 1.39%
O=P1(Nc2ncccn2)COc2ccccc2OC1	inactive: 4.8%
CN(C)C1(CNC(=O)c2ccc(S(C)(=O)=O)cc2)CCCCC1	inactive: -24.3%
CC1CCC(C(C)C)C(OP(=O)(Nc2ccccn2)c2ccccc2)C1 (centres undefined)	inactive: 8.83%
Cc1nn(-c2ccccc2)c2c1P(=O)(N1CCOCC1)N(C)C(c1ccccc1)=N2 (centres undefined)	inactive: -4.78%
CC(C)/C=N\N=C(\N)N[N+](=O)[O-]	inactive: -6.91%
CC1(CBr)Cn2c(nc3ccccc3c2=O)S1 (centres undefined)	inactive: -4.86%
Clc1n[nH]nc1-c1nn[nH][15n]1	inactive: -2.02%
O=P1(Nc2ccccn2)COc2ccccc2OC1	inactive: -9.71%
CCOP(=O)(Nc1cccc2ccccc12)OCC	inactive: -3.29%

Compound	inhibition
COc1cc(C2NCCC3(OCCO3)C2(C)C)cc(OC)c1OC (centres undefined)	inactive: -22.1%
Cc1ccc(NCCc2c([N+](=O)[O-])cc([N+](=O)[O-])cc2[N+](=O)[O-])cc1	inactive: -16.6%
Cc1cccc(OCC(=O)OC2CN3CCC2CC3)c1 (centres undefined)	inactive: -6.33%
COc1cc(C(=O)NCC2(N3CCOCC3)CCCCC2)cc(Cl)c1OC(C)C	inactive: -2.28%
CCOP1(=S)c2c(C)nn(CCC#N)c2N=C(c2ccc(F)cc2)N1C (centres undefined)	inactive: -2.49%
O=[N+]([O-])c1ccc2c(c1)nnn2O	inactive: -1.39%
O=P(Nc1nccs1)(Oc1ccccc1)Oc1ccccc1	inactive: 0.4%
O=P(Nc1nccs1)(c1ccccc1)c1nc2ccccc2s1 (centres undefined)	inactive: 7.68%
CCOP1(=S)c2c(C)nn(CCC#N)c2N=C(c2ccccc2F)N1C (centres undefined)	inactive: -0.75%
O=[N+]([O-])c1cc([N+](=O)[O-])c(-c2ccn[nH]2)s1	inactive: -1.72%
CC(C)NC(=O)NP(=O)(Oc1ccccc1)Oc1ccccc1	inactive: 8.37%
CCN(CC)C(=S)SC(NC=O)C(Cl)(Cl)Cl (centres undefined)	inactive: -12.8%
ClCCSc1nnc(-c2cccnc2)o1	inactive: -7.77%
Cc1ccc2nc3c(c(C)c2c1)CC(C(Cl)Cl)S3 (centres undefined)	inactive: 5.78%
COc1ccc(N/C(=N/P(=O)(N2CCOCC2)N2CCOCC2)N2CCOCC2)cc1	inactive: 4.3%
COc1ccc2nc(NP(=O)(c3ccccc3)c3ccccc3)sc2c1	inactive: -2.58%
Cc1c2c(nc3ccccc13)SC(C(Cl)Cl)C2 (centres undefined)	inactive: 14.5%
Cc1cc(=O)[nH]c(N[N+](=O)[O-])n1	inactive: -16.7%
O=C(OC1CN2CCC1CC2)C12CC3CC(CC(C3)C1)C2 (centres undefined)	inactive: -21.3%
CCC(C)N(CC(C)C)C(=S)SC(NC(C)=O)C(Cl)(Cl)Cl (centres undefined)	inactive: 10.6%
O=C(COc1ccccc1)OC1CN2CCC1CC2 (centres undefined)	inactive: 4.72%
COP1(=S)c2c(C)nn(CCC#N)c2N=C(c2ccc(F)cc2)N1C (centres undefined)	inactive: -1.61%
O=P(Nc1ccccn1)(c1cccc2ccccc12)c1cccc2ccccc12	inactive: 12.5%
Cc1cc(SC(NC=O)C(Cl)(Cl)Cl)ncn1 (centres undefined)	inactive: 0.79%
Cc1cc(SC(NC(=O)c2ccccc2)C(Cl)(Cl)Cl)nc(C(C)C)n1 (centres undefined)	inactive: 11.6%
